# Experimental vapor pressure values from OPERA 2.9

Values as listed in the OPERA 2.9 repository of K. Mansouri.

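The OPERA project collected these measurements from public sources as training and test data for property models. One number stands for a compound and property, with no spread given. Method, purity and exact conditions of the single measurements are not given. The measured form (salt, isomer or mixture) is not always the one drawn. Unmarked limits or estimates from the upstream databases cannot be ruled out.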

Vapor pressure is log10 of mmHg; the set covers 15 to 30 °C, mostly 20 to 25 °C. "via" names the databases from which the curators took the value.

- C=CC(=O)N1CCOCC1 [4-(1-Oxo-2-propenyl)-morpholine]: log vapor pressure -1.91 (log10 mmHg) (via eChemPortal)
- Clc1ccc(-c2cccc(Cl)c2Cl)cc1Cl: log vapor pressure -5.907 (log10 mmHg) (via OCHEM)
- COc1cc(C(F)(F)F)ccn1 [Pyridine, 2-methoxy-4-(trifluoromethyl)-]: log vapor pressure 0.744 (log10 mmHg) (via eChemPortal)
- C=C(C)CS(=O)(=O)[O-].[Na+] [Sodium 2-methylprop-2-ene-1-sulfonate]: log vapor pressure -9.966 (log10 mmHg) (via eChemPortal)
- O=C1CCC(=O)N1Br [1-Bromopyrrolidine-2,5-dione]: log vapor pressure -4.69 (log10 mmHg) (via eChemPortal)
- CCCCC(CC)COC(=O)c1ccc(N(C)C)cc1 (stereo not given) [2-Ethylhexyl 4-(dimethylamino)benzoate]: log vapor pressure -5.426 (log10 mmHg) (via eChemPortal)
- CCC(C)Nc1ccc(NC(C)CC)cc1 (stereo not given) [N,N'-Bis(1-methylpropyl)-1,4-benzenediamine]: log vapor pressure -3.562 (log10 mmHg) (via eChemPortal)
- Clc1cc(Cl)c2oc3c(Cl)cc(Cl)c(Cl)c3c2c1Cl [1,2,4,6,8,9-Hexachlorodibenzofuran]: log vapor pressure -7.165 (log10 mmHg) (via OCHEM)
- NCC(=O)[O-].NCC(=O)[O-].[Ca+2] [Calcium glycinate]: log vapor pressure -6.397 (log10 mmHg) (via eChemPortal)
- CCCCC(CC)COC(=O)CC(C)CC(C)(C)C (stereo not given) [3,5,5-Trimethylhexanoic acid, 2-ethylhexyl ester]: log vapor pressure -3.179 (log10 mmHg) (via eChemPortal)
- COc1c(O)c(OC)c(Cl)c(Cl)c1Cl [Trichlorosyringol]: log vapor pressure -3.235 (log10 mmHg) (via OCHEM)
- S=c1sc2nc3ccccc3nc2s1 [Thioquinox]: log vapor pressure -7 (log10 mmHg) (via PubChem)
- Clc1cc(Cl)cc(-c2ccc(Cl)cc2Cl)c1: log vapor pressure -4.295 (log10 mmHg) (via OCHEM)
- C[C@@H]1O[C@@H](O[C@H]2[C@H](Oc3cc(O)c4c(c3)O[C@H](c3ccc(O)cc3)CC4=O)O[C@H](CO)[C@@H](O)[C@@H]2O)[C@H](O)[C@H](O)[C@H]1O [Naringin]: log vapor pressure -12.52 (log10 mmHg) (via eChemPortal)
- CC(O)COc1ccccc1 (stereo not given) [1-Phenoxy-2-propanol]: log vapor pressure -2.393 (log10 mmHg) (via PubChem, eChemPortal)
- CCN(CC)CCN [2-Aminoethyldiethylamine]: log vapor pressure 0.602 (log10 mmHg) (via eChemPortal)
- CC(O)CN(CCN(CC(C)O)CC(C)O)CC(C)O (stereo not given): log vapor pressure -4.983 (log10 mmHg) (via eChemPortal)
- C[C@]12CC[C@@H]3c4ccc(O)cc4CC[C@H]3[C@@H]1CC[C@@H]2O [17beta-Estradiol]: log vapor pressure -10.65 (log10 mmHg) (via eChemPortal)
- O=C=NCCCCCN=C=O: log vapor pressure -1.62 (log10 mmHg) (via eChemPortal)
- C=CCCCCCCCCCCCCCCCCCCCCCC: log vapor pressure -4.939 (log10 mmHg) (via OFMPub)
- Clc1cc(Cl)c(-c2c(Cl)cccc2Cl)cc1Cl [2,2',4,5,6'-Pentachlorobiphenyl]: log vapor pressure -4.305 (log10 mmHg) (via OCHEM)
- Cc1ccc(S(=O)[O-])cc1.Cc1ccc(S(=O)[O-])cc1.[Zn+2] [Benzenesulfinic acid, 4-methyl-, zinc salt]: log vapor pressure -4.484 (log10 mmHg) (via eChemPortal)
- NCC(=O)O.[Zn] [Glycine--zinc (1/1)]: log vapor pressure -10.25 (log10 mmHg) (via eChemPortal)
- O=C(O)CNC(CO)(CO)CO [Glycine, N-[2-hydroxy-1,1-bis(hydroxymethyl)ethyl]-]: log vapor pressure -4.736 (log10 mmHg) (via eChemPortal)
- NCCCCCCCCCN [Nonamethylenediamine]: log vapor pressure -1.591 (log10 mmHg) (via eChemPortal)
- Cc1c(C)c2c(c(C)c1O)CCC(C)(CCCC(C)CCCC(C)CCCC(C)C)O2 (stereo not given) [alpha-Tocopherol]: log vapor pressure -8.368 (log10 mmHg) (via eChemPortal)
- O=C(Cl)c1cc(Cl)c(Cl)c(Cl)c1Cl: log vapor pressure -2.71 (log10 mmHg) (via eChemPortal)
- COCCC(=O)N(C)C [Propanamide, 3-methoxy-N,N-dimethyl-]: log vapor pressure -0.247 (log10 mmHg) (via eChemPortal)
- CCCCOC(=O)CO [Butyl hydroxyacetate]: log vapor pressure 0 (log10 mmHg) (via eChemPortal)
- OCCCCCCCl [6-Chlorohexan-1-ol]: log vapor pressure -0.097 (log10 mmHg) (via eChemPortal)